Molecular target: Human plasma kallikrein (Homo sapiens, UniProt P03952)
Assay: Kallikrein Assay (fluorogenic substrate hydrolysis, AFC release)
Conditions: read-out: Plasma Kallikrein IC50; purified Human plasma kallikrein 0.5 nM; substrate Acetyl-K—P—R-AFC 100 mM; 50 mM HEPES pH 7.4
Experimental: The effectiveness of a compound of the present invention as an inhibitor of Kallikrein can be determined using a relevant purified serine protease, and an appropriate synthetic substrate. The rate of hydrolysis of the chromogenic or fluorogenic substrate by the relevant serine protease was measured both in the absence and presence of compounds of the present invention. Assays were conducted at room temperature or at 37° C. […] A decrease in the rate of fluorescence change in the presence of inhibitor is indicative of enzyme inhibition. Such methods are known to one skilled in the art. The results of this assay are expressed as the half-maximal inhibitory concentrations (IC50), or the inhibitory constant, Ki. […]
Activity assays were performed by diluting a stock solution of substrate at least tenfold to a final concentration ≤0.2 Km into a solution containing enzyme or enzyme equilibrated with inhibitor. Times required to achieve equilibration between enzyme and inhibitor were determined in control experiments. The reactions were performed under linear progress curve conditions and fluorescence increase measured at 405 Ex/510 Em nm. […] IC50 was determined by inflection point from a four parameter logistic curve fit. Ki was calculated using the Cheng Prusoff equation, Ki=IC50/(1+([S]/Km)).

The chains behind the UniProt entries cited, without tags or fusion partners. Residues count along the entry.
UniProt P03952, 391-638 limits assumed: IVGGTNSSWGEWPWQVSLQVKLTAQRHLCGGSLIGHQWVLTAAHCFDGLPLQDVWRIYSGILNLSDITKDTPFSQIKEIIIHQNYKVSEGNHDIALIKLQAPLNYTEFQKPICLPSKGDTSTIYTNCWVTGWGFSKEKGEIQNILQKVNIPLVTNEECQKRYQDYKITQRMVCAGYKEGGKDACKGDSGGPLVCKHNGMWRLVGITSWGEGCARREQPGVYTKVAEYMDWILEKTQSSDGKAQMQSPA
UniProt P03952, 20-390 partner limits assumed: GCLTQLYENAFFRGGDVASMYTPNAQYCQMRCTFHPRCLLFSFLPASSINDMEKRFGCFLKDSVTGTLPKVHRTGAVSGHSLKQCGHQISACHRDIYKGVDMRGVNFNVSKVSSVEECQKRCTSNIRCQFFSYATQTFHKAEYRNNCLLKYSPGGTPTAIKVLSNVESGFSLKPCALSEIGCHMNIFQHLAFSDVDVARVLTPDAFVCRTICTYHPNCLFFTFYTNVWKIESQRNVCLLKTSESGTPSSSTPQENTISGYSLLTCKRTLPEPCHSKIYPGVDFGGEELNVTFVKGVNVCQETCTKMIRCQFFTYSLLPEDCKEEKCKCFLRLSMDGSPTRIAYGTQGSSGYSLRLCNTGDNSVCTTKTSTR

SMILES: Cc1cc(N2C[C@H]3C[C@H]3C2=O)ncc1C(C)n1cc(C(=O)N[C@H]2C[C@@H](c3cc(Cl)ccc3C#N)C2)cn1 (single isomer, unassigned) [Example 7]
- IC50: 0.3 nM

SMILES: Cc1cc(N2C[C@H]3C[C@H]3C2=O)ncc1C(C)n1cc(C(=O)N[C@H]2C[C@@H](c3cc(Cl)ccc3C#N)C2)cn1 (single isomer, unassigned) [Example 8]
- IC50: 2.8 nM
